How the values were obtained:
15-PGDH mRNA = 15-PGDH mRNA levels by real-time PCR; type: cell-based; settings: treated colon cancer cell lines
15-PGDH [1] = target: T1, 15-PGDH (Homo sapiens (Human), UniProt P15428); experiment: Total 15-PGDH activity in compound treated cell lines (tritium method); type: cell-based; settings: FIG. 13
15-PGDH [2] = target: T1, 15-PGDH; experiment: Shift of melting temperature of recombinant 15-PGDH (SYPRO Orange); type: binding; settings: FIG. 14
A549 cells = experiment: PGE2 levels in the medium of IL1-beta stimulated A549 cells; type: cell-based; settings: IL1-beta 23 hours, compound added for the last 5 hours;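 note: PGE2 in the collected culture medium quantified by enzyme immunoassay (ELISA), with data drawn from three independent experiments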
15-PGDH protein = 15-PGDH protein levels in treated cells (western blot, immuno-fluorescence); type: cell-based; settings: V400-M3-2-72 cells
15-PGDH [3] = target: T1, 15-PGDH; experiment: as above; type: cell-based

By UniProt entry, the sequences of proteins in these tests, tags left out.
UniProt P15428, whole entry: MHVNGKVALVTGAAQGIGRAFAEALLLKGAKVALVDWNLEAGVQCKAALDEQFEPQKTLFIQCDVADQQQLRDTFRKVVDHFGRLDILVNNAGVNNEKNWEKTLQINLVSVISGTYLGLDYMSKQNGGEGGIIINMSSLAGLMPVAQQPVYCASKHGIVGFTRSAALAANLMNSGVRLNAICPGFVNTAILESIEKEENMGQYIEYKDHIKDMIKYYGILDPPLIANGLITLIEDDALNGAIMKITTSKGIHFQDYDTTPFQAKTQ

SMILES: COc1ccc(-c2cc(C(F)(F)F)n3nc(C(=O)N4CCCCC4)cc3n2)cc1
- 15-PGDH mRNA levels (real-time PCR) (15-PGDH mRNA): do not in general alter 15-PGDH mRNA levels
- 15-PGDH activity in treated cells (15-PGDH [1]): increasing 15-PGDH activity in most cell lines
- direct binding to recombinant 15-PGDH (melting temperature shift) (15-PGDH [2]): show evidence of direct binding to 15-PGDH
- PGE2 levels in medium (A549 cells): clear inhibition of 15-PGDH activity
- protein levels of catalytically dead mutant 15-PGDH (mu-PGDH) (15-PGDH protein): increases protein levels of a catalytically dead mutant 15-PGDH
- levels of 15-PGDH protein (wt-PGDH) expressed from cDNA vector (15-PGDH [3]; 5 μM, V400-S3-2-32 cells): increases levels of 15-PGDH protein (wt-PGDH)
- 15-PGDH protein levels (15-PGDH [3]; V503 cells, immuno-fluorescence and western blot): increase in 15-PGDH protein levels
- 15-PGDH protein levels (western blot) (15-PGDH [3]; colon cell lines, FIG. 3): increases 15-PGDH protein levels

Source: US9790233B2, “Compositions and methods of modulating 15-PGDH activity” (CASE WESTERN RESERVE UNIVERSITY, priority 2012, dated 2017)
